{
  "source": "patent US7402314B2",
  "about": "“In vivo activation of tumor-specific cytotoxic T cells” (The Scripps Research Institute, priority 1995, dated 2008)",
  "assay_in_all_cases": "Cytotoxicity assay, killing of tumors (Table 7)",
  "type_in_all_cases": "cell-based, human",
  "key": {"BT549": {"tested_on": "BT549", "conditions": "BT549, Breast, A2 +"}, "CASKI": {"tested_on": "CASKI", "conditions": "Cervix, A2 +"}, "Hep-G2": {"tested_on": "Hep-G2", "conditions": "Hep-G2, Hepatoma, A2 +"}, "JY": {"tested_on": "JY", "conditions": "Lymphoma, A2 +"}, "LG-2": {"tested_on": "LG-2", "conditions": "LG-2, EBV-trans., A2 +"}, "MALME-3M": {"tested_on": "MALME-3M", "conditions": "Melanoma, A2 +"}, "MCF-7": {"tested_on": "MCF-7", "conditions": "MCF-7, Breast, A2 +"}, "MDA.M8231": {"tested_on": "MDA.M8231", "conditions": "MDA.M8231, Breast, A2 +"}, "MDA.MB435": {"tested_on": "MDA.MB435", "conditions": "MDA.MB435, Breast, A2 −"}, "NCI.H1355": {"tested_on": "NCI.H1355", "conditions": "NCI.H1355, Lung, A2 +"}, "OVCAR-5": {"tested_on": "OVCAR-5", "conditions": "OVCAR-5, Ovarian, A2 +"}, "SAOS.175": {"tested_on": "SAOS.175", "conditions": "SAOS.175, Osteosarcoma, A2 +"}, "SKMEL-5": {"tested_on": "SKMEL-5", "conditions": "SKMEL-5, Melanoma, A2 +"}, "ST486": {"tested_on": "ST486", "conditions": "ST486, Lymphoma, A2 +"}, "SV80": {"tested_on": "SV80", "conditions": "SV80, Fibroblast, A2 +"}, "SW480": {"tested_on": "SW480", "conditions": "SW480, Colon, A2 +"}, "T98G": {"tested_on": "T98G", "conditions": "Glioblastoma, A2 +"}, "U2-OS": {"tested_on": "U2-OS", "conditions": "Osteosarcoma, A2 +"}, "U87G": {"tested_on": "U87G", "conditions": "Glioblastoma, A2 +"}, "[1]": {"conditions": "+ CYT (γ-IFN plus TNF-α, 24 hours)"}},
  "data": [
    {"compound": "CC[C@H](C)[C@H](NC(=O)[C@@H](N)CCCCN)C(=O)N[C@@H](Cc1ccccc1)C(=O)NCC(=O)N[C@@H](CO)C(=O)N[C@@H](CC(C)C)C(=O)N[C@@H](C)C(=O)N[C@@H](Cc1ccccc1)C(=O)N[C@@H](CC(C)C)C(=O)O", "note": "[Peptide H3]", "values": [
      {"measurement": "Killing of Tumors Expressing Her-2/neu (percent specific lysis)", "setting": "BT549; [1]", "result": 40, "unit": "%"},
      {"measurement": "Killing of Tumors Expressing Her-2/neu (percent specific lysis)", "setting": "BT549; no cytokines", "result": 2, "unit": "%"},
      {"measurement": "Killing of Tumors Expressing Her-2/neu (percent specific lysis)", "setting": "CASKI; [1]", "result": 30, "unit": "%"},
      {"measurement": "Killing of Tumors Expressing Her-2/neu (percent specific lysis)", "setting": "CASKI; no cytokines", "result": 13, "unit": "%"},
      {"measurement": "Killing of Tumors Expressing Her-2/neu (percent specific lysis)", "setting": "Hep-G2; [1]", "result": 20, "unit": "%"},
      {"measurement": "Killing of Tumors Expressing Her-2/neu (percent specific lysis)", "setting": "Hep-G2; no cytokines", "result": 4, "unit": "%"},
      {"measurement": "Killing of Tumors Expressing Her-2/neu (percent specific lysis)", "setting": "JY; [1]", "result": 1, "unit": "%"},
      {"measurement": "Killing of Tumors Expressing Her-2/neu (percent specific lysis)", "setting": "JY; no cytokines", "result": 2, "unit": "%"},
      {"measurement": "Killing of Tumors Expressing Her-2/neu (percent specific lysis)", "setting": "LG-2; [1]", "result": 4, "unit": "%"},
      {"measurement": "Killing of Tumors Expressing Her-2/neu (percent specific lysis)", "setting": "LG-2; no cytokines", "result": 2, "unit": "%"},
      {"measurement": "Killing of Tumors Expressing Her-2/neu (percent specific lysis)", "setting": "MALME-3M; [1]", "result": 57, "unit": "%"},
      {"measurement": "Killing of Tumors Expressing Her-2/neu (percent specific lysis)", "setting": "MALME-3M; no cytokines", "result": 28, "unit": "%"},
      {"measurement": "Killing of Tumors Expressing Her-2/neu (percent specific lysis)", "setting": "MCF-7; [1]", "result": 54, "unit": "%"},
      {"measurement": "Killing of Tumors Expressing Her-2/neu (percent specific lysis)", "setting": "MCF-7; no cytokines", "result": 7, "unit": "%"},
      {"measurement": "Killing of Tumors Expressing Her-2/neu (percent specific lysis)", "setting": "MDA.M8231; [1]", "result": 85, "unit": "%"},
      {"measurement": "Killing of Tumors Expressing Her-2/neu (percent specific lysis)", "setting": "MDA.M8231; no cytokines", "result": 34, "unit": "%"},
      {"measurement": "Killing of Tumors Expressing Her-2/neu (percent specific lysis)", "setting": "MDA.MB435; [1]", "result": 2, "unit": "%"},
      {"measurement": "Killing of Tumors Expressing Her-2/neu (percent specific lysis)", "setting": "MDA.MB435; no cytokines", "result": 3, "unit": "%"},
      {"measurement": "Killing of Tumors Expressing Her-2/neu (percent specific lysis)", "setting": "NCI.H1355; [1]", "result": 38, "unit": "%"},
      {"measurement": "Killing of Tumors Expressing Her-2/neu (percent specific lysis)", "setting": "NCI.H1355; no cytokines", "result": 11, "unit": "%"},
      {"measurement": "Killing of Tumors Expressing Her-2/neu (percent specific lysis)", "setting": "OVCAR-5; [1]", "result": 29, "unit": "%"},
      {"measurement": "Killing of Tumors Expressing Her-2/neu (percent specific lysis)", "setting": "OVCAR-5; no cytokines", "result": 25, "unit": "%"},
      {"measurement": "Killing of Tumors Expressing Her-2/neu (percent specific lysis)", "setting": "SAOS.175; [1]", "result": 33, "unit": "%"},
      {"measurement": "Killing of Tumors Expressing Her-2/neu (percent specific lysis)", "setting": "SAOS.175; no cytokines", "result": 27, "unit": "%"},
      {"measurement": "Killing of Tumors Expressing Her-2/neu (percent specific lysis)", "setting": "SKMEL-5; [1]", "result": 38, "unit": "%"},
      {"measurement": "Killing of Tumors Expressing Her-2/neu (percent specific lysis)", "setting": "SKMEL-5; no cytokines", "result": 6, "unit": "%"},
      {"measurement": "Killing of Tumors Expressing Her-2/neu (percent specific lysis)", "setting": "ST486; [1]", "result": 1, "unit": "%"},
      {"measurement": "Killing of Tumors Expressing Her-2/neu (percent specific lysis)", "setting": "ST486; no cytokines", "result": 1, "unit": "%"},
      {"measurement": "Killing of Tumors Expressing Her-2/neu (percent specific lysis)", "setting": "SV80; [1]", "result": 8, "unit": "%"},
      {"measurement": "Killing of Tumors Expressing Her-2/neu (percent specific lysis)", "setting": "SV80; no cytokines", "result": 4, "unit": "%"},
      {"measurement": "Killing of Tumors Expressing Her-2/neu (percent specific lysis)", "setting": "SW480; [1]", "result": 50, "unit": "%"},
      {"measurement": "Killing of Tumors Expressing Her-2/neu (percent specific lysis)", "setting": "SW480; no cytokines", "result": 6, "unit": "%"},
      {"measurement": "Killing of Tumors Expressing Her-2/neu (percent specific lysis)", "setting": "T98G; [1]", "result": 99, "unit": "%"},
      {"measurement": "Killing of Tumors Expressing Her-2/neu (percent specific lysis)", "setting": "T98G; no cytokines", "result": 20, "unit": "%"},
      {"measurement": "Killing of Tumors Expressing Her-2/neu (percent specific lysis)", "setting": "U2-OS; [1]", "result": 91, "unit": "%"},
      {"measurement": "Killing of Tumors Expressing Her-2/neu (percent specific lysis)", "setting": "U2-OS; no cytokines", "result": 32, "unit": "%"},
      {"measurement": "Killing of Tumors Expressing Her-2/neu (percent specific lysis)", "setting": "U87G; [1]", "result": 1, "unit": "%"},
      {"measurement": "Killing of Tumors Expressing Her-2/neu (percent specific lysis)", "setting": "U87G; no cytokines", "result": 2, "unit": "%"}
    ]}
  ]
}
